This test relates to HiNGT, EcNGT, ApNGT and ApNGT^Q469A. Nature of the test: GlycoSCORES screen for differentially modified (conditionally orthogonal) sequences with four NGTs. Format: biochemical. Conditions: X−1NX+1(T/S)RC library and its X−2 and X−3 extensions, SAMDI.
Consider AFNQT, for which the “differential sequence preference in regard to N-glycosylation: which NGT modifies the sequence” value (from here on “differential sequence preference”) is recorded as “only for ApNGT^Q469A”.

As to AGNIS, the “differential sequence preference” value was “for EcNGT but not for HiNGT”.

For ANVT, the “differential sequence preference” value is on record as “for HiNGT”.

Turning to AYNLT, the “differential sequence preference” value is reported as “only for ApNGT^Q469A”.

On to DFNQT, for which the “differential sequence preference” value is given as “only for ApNGT^Q469A”.

Turning to DYNLT, the “differential sequence preference” value is “only for ApNGT^Q469A”.

ENVT: the “differential sequence preference” value is “for ApNGT but not for EcNGT or HiNGT”.

Take FGNIS: the “differential sequence preference” value is on record as “for EcNGT but not for HiNGT”.

Turning to FGNWS, the “differential sequence preference” value is listed as “for EcNGT but not for HiNGT”.

Take FNQT: the “differential sequence preference” value is “only for ApNGT^Q469A”.

On to GNIS, for which the “differential sequence preference” value is on record as “for EcNGT but not for HiNGT”.

For IGNIS, the “differential sequence preference” value was “for EcNGT but not for HiNGT”.

In the case of INQT, the “differential sequence preference” value was “only for ApNGT^Q469A”.

On to INWT, for which the “differential sequence preference” value was “only for ApNGT^Q469A”.

Take LGNIS: the “differential sequence preference” value is given as “for EcNGT but not for HiNGT”.

As for LNENVT, the “differential sequence preference” value is “for ApNGT but not for EcNGT or HiNGT”.

In the case of LNHS, the “differential sequence preference” value is reported as “for EcNGT but not for HiNGT”.

On to MGNIS, for which the “differential sequence preference” value is on record as “for EcNGT but not for HiNGT”.

For the substance NENVT, the “differential sequence preference” value is listed as “for ApNGT but not for EcNGT or HiNGT”.

On to PNIT, for which the “differential sequence preference” value is reported as “for HiNGT”.

Consider PNLT, for which the “differential sequence preference” value was “for HiNGT”.

Consider PNVT, for which the “differential sequence preference” value was “for HiNGT”.

As for SFNQT, the “differential sequence preference” value is on record as “only for ApNGT^Q469A”.

With SYNLT, the “differential sequence preference” value is listed as “only for ApNGT^Q469A”.

For the substance TGNIS, the “differential sequence preference” value was “for EcNGT but not for HiNGT”.

Consider VGNIS, for which the “differential sequence preference” value is reported as “for EcNGT but not for HiNGT”.

For WDYNLT, the “differential sequence preference” value was “only for ApNGT^Q469A”.

On to WGNWT, for which the “differential sequence preference” value was “for HiNGT”.

Take WNGS: the “differential sequence preference” value is “for EcNGT but not for HiNGT”.

WNWT: the “differential sequence preference” value is given as “only for ApNGT^Q469A”.

WPNIT: the “differential sequence preference” value was “for HiNGT”.

In the case of WPNLT, the “differential sequence preference” value is given as “for HiNGT”.

In the case of WPNVT, the “differential sequence preference” value is given as “for HiNGT”.

In the case of WYANVT, the “differential sequence preference” value is reported as “for HiNGT”.

As to YGNWS, the “differential sequence preference” value is recorded as “for EcNGT but not for HiNGT”.

Consider YGNWT, for which the “differential sequence preference” value is recorded as “for HiNGT”.

For the substance YMGNIS, the “differential sequence preference” value is “for EcNGT but not for HiNGT”.

Consider YNLT, for which the “differential sequence preference” value is listed as “only for ApNGT^Q469A”.

Turning to YNRT, the “differential sequence preference” value is listed as “only for ApNGT^Q469A”.

The values are drawn from patent publication US11898187B2 (priority 2017, dated 2024).
